# Test results published in ChEMBL document CHEMBL1154385, “(4-Piperidinyl)-piperazine: a new platform for acetyl-CoA carboxylase inhibitors” (Bioorg Med Chem Lett, 2009).
# Sequences of proteins named here, by UniProt entry; tags and fusion partners are left off.
# UniProt Q1HEC0, whole entry: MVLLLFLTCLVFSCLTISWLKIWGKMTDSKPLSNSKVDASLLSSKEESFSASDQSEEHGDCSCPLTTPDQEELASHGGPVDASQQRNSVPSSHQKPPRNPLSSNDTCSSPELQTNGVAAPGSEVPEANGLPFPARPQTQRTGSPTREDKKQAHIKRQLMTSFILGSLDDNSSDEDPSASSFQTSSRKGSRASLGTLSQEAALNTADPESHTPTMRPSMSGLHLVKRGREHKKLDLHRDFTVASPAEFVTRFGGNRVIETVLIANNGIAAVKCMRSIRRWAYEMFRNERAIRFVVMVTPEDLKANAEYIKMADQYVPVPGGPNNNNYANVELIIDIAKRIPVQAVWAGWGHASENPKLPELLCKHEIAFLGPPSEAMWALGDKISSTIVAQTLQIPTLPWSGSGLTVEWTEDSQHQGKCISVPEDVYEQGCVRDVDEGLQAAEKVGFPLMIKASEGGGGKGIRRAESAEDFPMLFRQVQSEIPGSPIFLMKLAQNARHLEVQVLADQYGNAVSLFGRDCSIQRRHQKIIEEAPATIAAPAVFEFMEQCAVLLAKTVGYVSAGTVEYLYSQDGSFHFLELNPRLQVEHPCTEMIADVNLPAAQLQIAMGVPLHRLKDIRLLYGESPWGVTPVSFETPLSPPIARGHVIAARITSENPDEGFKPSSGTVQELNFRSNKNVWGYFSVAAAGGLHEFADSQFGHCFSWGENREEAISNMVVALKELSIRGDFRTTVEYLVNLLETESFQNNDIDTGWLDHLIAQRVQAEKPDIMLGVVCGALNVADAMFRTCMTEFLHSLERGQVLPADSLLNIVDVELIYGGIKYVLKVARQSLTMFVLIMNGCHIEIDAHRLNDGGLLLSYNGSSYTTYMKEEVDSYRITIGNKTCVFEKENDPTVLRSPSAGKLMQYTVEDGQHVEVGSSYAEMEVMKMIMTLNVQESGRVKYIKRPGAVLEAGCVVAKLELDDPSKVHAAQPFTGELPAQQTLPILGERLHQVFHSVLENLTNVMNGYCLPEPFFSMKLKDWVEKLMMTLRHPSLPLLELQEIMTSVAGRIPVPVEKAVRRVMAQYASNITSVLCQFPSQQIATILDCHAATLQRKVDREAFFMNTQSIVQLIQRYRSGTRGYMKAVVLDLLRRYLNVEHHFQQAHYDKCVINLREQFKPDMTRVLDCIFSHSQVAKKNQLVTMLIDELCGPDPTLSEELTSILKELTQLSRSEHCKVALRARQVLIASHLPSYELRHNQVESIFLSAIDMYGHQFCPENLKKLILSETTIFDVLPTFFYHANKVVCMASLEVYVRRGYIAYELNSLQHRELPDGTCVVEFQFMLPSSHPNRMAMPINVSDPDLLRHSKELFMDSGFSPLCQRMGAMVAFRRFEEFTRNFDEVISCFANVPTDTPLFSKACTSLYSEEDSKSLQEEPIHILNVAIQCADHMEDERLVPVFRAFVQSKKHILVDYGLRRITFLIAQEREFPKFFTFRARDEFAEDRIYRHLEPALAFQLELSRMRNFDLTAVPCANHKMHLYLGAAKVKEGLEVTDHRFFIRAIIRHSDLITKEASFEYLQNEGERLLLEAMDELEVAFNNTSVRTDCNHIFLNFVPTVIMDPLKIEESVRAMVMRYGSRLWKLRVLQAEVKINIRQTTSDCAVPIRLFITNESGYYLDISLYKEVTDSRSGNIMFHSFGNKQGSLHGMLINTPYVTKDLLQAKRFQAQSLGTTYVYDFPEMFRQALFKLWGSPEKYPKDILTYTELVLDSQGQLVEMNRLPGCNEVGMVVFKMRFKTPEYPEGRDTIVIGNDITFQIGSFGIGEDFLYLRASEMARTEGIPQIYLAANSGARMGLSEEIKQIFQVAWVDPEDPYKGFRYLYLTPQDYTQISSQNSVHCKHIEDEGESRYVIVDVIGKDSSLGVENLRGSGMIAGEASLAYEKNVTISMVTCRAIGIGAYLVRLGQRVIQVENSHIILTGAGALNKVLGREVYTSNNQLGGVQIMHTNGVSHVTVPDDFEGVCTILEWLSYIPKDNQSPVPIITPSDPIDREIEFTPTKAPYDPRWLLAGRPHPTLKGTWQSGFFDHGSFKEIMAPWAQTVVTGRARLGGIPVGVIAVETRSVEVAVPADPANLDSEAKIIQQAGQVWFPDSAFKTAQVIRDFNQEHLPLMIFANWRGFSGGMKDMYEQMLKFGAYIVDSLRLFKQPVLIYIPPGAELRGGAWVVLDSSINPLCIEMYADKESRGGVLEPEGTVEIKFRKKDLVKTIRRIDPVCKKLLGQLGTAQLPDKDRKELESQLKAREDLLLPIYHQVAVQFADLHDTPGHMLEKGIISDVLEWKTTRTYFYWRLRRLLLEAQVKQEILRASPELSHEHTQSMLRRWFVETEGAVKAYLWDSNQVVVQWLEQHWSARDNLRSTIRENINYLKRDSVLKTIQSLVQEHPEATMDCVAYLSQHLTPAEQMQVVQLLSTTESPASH
# Molecular target: Acetyl-Coenzyme A carboxylase 2 (Rattus norvegicus, UniProt Q1HEC0)
# Assay: Inhibition of rat ACC2
smiles,measurement,value
O=C(c1c2ccccc2cc2ccccc12)N1CCC(N2CCC[C@@H](C(=O)N3CCOCC3)C2)CC1,IC50,61 nM
